Seven molecules from PubChem BioAssay AID1645853 (Buhrlage Lab, Dana-Farber Cancer Institute and Novartis …, 2021) can be followed below.

Protein sequences, listed by entry. Tags and fused reporters are not part of them.
UniProt P40818, whole entry: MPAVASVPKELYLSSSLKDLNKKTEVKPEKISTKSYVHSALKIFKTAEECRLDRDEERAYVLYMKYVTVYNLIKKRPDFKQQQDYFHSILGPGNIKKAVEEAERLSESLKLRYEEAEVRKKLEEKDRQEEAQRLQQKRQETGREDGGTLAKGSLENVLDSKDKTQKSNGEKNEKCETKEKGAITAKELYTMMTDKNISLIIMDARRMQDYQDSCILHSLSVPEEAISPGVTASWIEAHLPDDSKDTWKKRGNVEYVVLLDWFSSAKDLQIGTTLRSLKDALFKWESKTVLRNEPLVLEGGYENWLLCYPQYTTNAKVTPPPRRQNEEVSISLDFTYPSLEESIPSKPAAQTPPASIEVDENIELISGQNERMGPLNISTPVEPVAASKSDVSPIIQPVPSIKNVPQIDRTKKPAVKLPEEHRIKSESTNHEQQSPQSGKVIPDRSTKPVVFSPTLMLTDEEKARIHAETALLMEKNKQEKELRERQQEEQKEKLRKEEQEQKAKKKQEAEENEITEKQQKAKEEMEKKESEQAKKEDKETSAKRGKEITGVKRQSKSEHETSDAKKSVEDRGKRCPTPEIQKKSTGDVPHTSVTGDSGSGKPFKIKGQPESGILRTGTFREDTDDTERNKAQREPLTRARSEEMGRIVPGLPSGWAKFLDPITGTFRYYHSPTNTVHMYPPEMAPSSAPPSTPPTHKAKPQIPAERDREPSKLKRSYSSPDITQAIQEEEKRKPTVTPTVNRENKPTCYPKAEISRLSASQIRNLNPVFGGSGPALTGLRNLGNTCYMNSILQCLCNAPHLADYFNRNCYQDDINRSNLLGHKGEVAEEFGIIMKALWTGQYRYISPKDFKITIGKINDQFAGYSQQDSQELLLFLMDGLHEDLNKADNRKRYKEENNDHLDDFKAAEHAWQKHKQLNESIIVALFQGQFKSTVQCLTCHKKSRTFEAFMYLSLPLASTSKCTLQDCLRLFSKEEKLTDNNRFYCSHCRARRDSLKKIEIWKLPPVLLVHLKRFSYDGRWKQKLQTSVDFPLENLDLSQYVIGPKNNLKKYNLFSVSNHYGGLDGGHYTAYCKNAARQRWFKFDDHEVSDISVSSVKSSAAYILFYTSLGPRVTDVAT

The structures appear in SMILES notation. Only a part is listed here, and it is no random draw. Some tests of the compounds listed are not included; inactive here does not mean inactive elsewhere. Activity calls are given as the source filed them. Rule as the data show it: active = inhibition above about 30%; inactive = the rest.

The test concerns the target Ubiquitin carboxyl-terminal hydrolase 8 (Homo sapiens) (UniProt P40818). In words: blocks human USP8 ubiquitin-rhodamine cleavage (AID 1645853). The conditions noted are these: purified USP8, Ub-rhodamine cleavage fluorescence, 30 min; at 20 µM; active compounds read high.
In general, inhibition refers to the drop in the measured response relative to a control, in per cent. Take `O=C(NCC1(N2CCCCC2)CCCCC1)c1ccc2ccccc2c1`: the inhibition is inactive: -7.38%.

Turning to `O=C(NCC1(N2CCOCC2)CCCCC1)c1ccccc1F`, the inhibition is inactive: 0.271%.

Consider `Cc1c(C(=O)NCC2(N(C)C)CCCCC2)oc2ccccc12`, for which the inhibition was inactive: 8.31%.

In the case of `Cc1c(C(=O)NCC2(N(C)C)CCCCC2)oc2ccc(F)cc12`, the inhibition is inactive: 13.2%.

As to `COc1cccc(C(=O)NCC2(N3CCCCC3)CCCCC2)c1`, the inhibition was inactive: -19.5%.

`COc1ccc(C(=O)NCC2(N3CCOCC3)CCCCC2)cc1`: the inhibition was inactive: -2.64%.

For `O=C(NCC1(N2CCCCC2)CCCCC1)c1ccc2c(c1)OCCO2`, the inhibition was inactive: 15.4%.
